Literature values, collected in patent US9855226B2, “d-methadone for the treatment of psychiatric symptoms” (Relmada Therapeutics, Inc., priority 2012, dated 2018).

Tested on: opioid receptors
Details: cited from earlier work

Compound	Opioid receptor binding / activity
CCC(=O)C(C[C@H](C)N(C)C)(c1ccccc1)c1ccccc1 [d-methadone]	without opioid receptor activity
CCC(=O)C(C[C@@H](C)N(C)C)(c1ccccc1)c1ccccc1 [l-methadone, reference compound]	binds to opioid receptors
